Measurements as given in patent US7846434B2, “Materials and methods for improved immunoglycoproteins” (Trubion Pharmaceuticals, Inc., priority 2006, dated 2010).

Test system: Ramos B cells
Experiment: CDC, Ramos B cells with human serum, propidium iodide
Type: cell-based
Settings: TRU-015 from CHO cells treated with 30 μg/ml castanospermine
Method: To determine the CDC activity of TRU-016 purified protein produced according to Example 2, Ramos B cells were suspended in Iscoves (Gibco/Invitrogen, Grand Island, N.Y.) at 5×10^5 cells/well in 75 μl. TRU-016 (75 μl) were added to the cells at twice the concentrations indicated. Binding reactions were allowed to proceed for 45 minutes prior to centrifugation and washing in serum-free Iscoves. Cells were resuspended in Iscoves with human serum (containing complement) at various concentrations. The cells were incubated 60 minutes at 37° C. Cells were washed by centrifugation and resuspended in staining media with 0.5 μg/ml propidium iodide. Samples were incubated 15 minutes at room temperature in the dark prior to analysis by flow cytometry using a FACsCalibur and CellQuest software (Becton Dickinson).

## TRU-015: recombinant single chain protein (SMIP) that binds to the CD20 antigen; SEQ ID NO: 4
  CDC versus protein produced by untreated CHO cells: similar
